Test results from US20210221843A1, “EPHA2 AGONISTS AND USES THEREOF” (THE REGENTS OF THE UNIVERSITY OF CALIFORNIA, priority 2018, published 2021).
Like-named read-outs stand apart in the source and are kept apart here.

Protein sequences, listed by entry. Tags and fused reporters are not part of them. Residues count along the entry.
UniProt P29317, 28-206 limits assumed: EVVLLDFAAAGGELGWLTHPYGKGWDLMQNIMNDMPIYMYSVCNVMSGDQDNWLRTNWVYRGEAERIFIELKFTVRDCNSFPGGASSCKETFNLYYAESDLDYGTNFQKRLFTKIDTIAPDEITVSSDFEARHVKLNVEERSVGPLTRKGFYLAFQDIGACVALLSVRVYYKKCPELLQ
UniProt P29317, 27-200 limits assumed: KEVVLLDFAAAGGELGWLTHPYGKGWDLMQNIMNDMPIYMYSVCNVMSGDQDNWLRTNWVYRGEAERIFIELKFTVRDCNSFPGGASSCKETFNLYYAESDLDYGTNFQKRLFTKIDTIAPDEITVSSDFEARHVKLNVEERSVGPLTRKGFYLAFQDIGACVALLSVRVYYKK

Assays:
EphA2-LBD = EphA2-LBD (Homo sapiens, UniProt P29317); experiment: DELFIA displacement assay (displacement of biotinylated 123B9 from EphA2-LBD); conditions: Table 1, ± SE of duplicate measurements unless n given
[1] = plasma proteases / amino-peptidases; cited from earlier work
[2] = target: T1, 6×His-EphA2-ligand binding domain (LBD) (human, UniProt P29317 27-200, limits assumed); experiment: DELFIA displacement of 123B9-biotin from 6xHis-EphA2-LBD
T1 construct: Expressed and purified 'as we previously reported (30)'; also called EphA2-LBD; EphA2 LBD; not shown: 6xHis tag

[3] = target: T1, 6×His-EphA2-ligand binding domain (LBD); experiment: DELFIA displacement assay: the test peptide displaces 6xHis-EphA2-LBD from immobilised 123B9-biotin (competitor), Eu-labelled anti-6xHis antibody read-out
[4] = target: T1, 6×His-EphA2-ligand binding domain (LBD); experiment: isothermal titration calorimetry
[5] = target: T1, 6×His-EphA2-ligand binding domain (LBD); experiment: DELFIA displacement assay: the test peptide displaces 6xHis-EphA2-LBD from immobilised 123B9-biotin (competitor), Eu-labelled anti-6xHis antibody read-out; remark: listed apart in the source
[6] = target: T1, 6×His-EphA2-ligand binding domain (LBD); experiment: DELFIA displacement of 123B9-biotin from 6xHis-EphA2-LBD; remark: listed apart in the source
[7] = target: T1, 6×His-EphA2-ligand binding domain (LBD); experiment: as above; remark: listed apart in the source

Molecule	IC50 (EphA2-LBD) [µM]	further results
CSCC[C@H](NC(=O)[C@H](Cc1ccccc1)NC(=O)[C@@H]1CCCN1C(=O)[C@@H](NC(=O)[C@H](CO)NC(=O)[C@H](CC(=O)O)NC(=O)[C@@H]1CCCN1C(=O)[C@H](Cc1ccc(O)cc1)NC(=O)[C@H](C)NC(=O)[C@H](CO)NC(=O)[C@@H](N)Cc1ccc(O)cc1)C(C)C)C(=O)N[C@@H](CO)C(N)=O [135C1]	7.5 ± 0.5	
CC(C)[C@H](NC(=O)[C@H](CO)NC(=O)[C@H](CC(=O)O)NC(=O)[C@@H]1CCCN1C(=O)[C@H](Cc1ccc(O)cc1)NC(=O)[C@H](C)NC(=O)[C@H](CO)NC(=O)[C@@H](N)Cc1ccc(O)cc1)C(=O)N1CCC[C@H]1C(=O)N[C@@H](Cc1ccccc1)C(=O)N[C@@H](CCCCN)C(=O)N1CCC[C@H]1C(N)=O [135F1]	1.5 ± 0.1	
CC(C)[C@H](NC(=O)[C@H](CO)NC(=O)[C@H](CC(=O)O)NC(=O)[C@@H]1CCCN1C(=O)[C@H](Cc1ccc(O)cc1)NC(=O)[C@H](C)NC(=O)[C@H](CO)NC(=O)[C@@H](N)Cc1ccc(O)cc1)C(=O)N[C@@H](CCC(=O)O)C(=O)N[C@@H](Cc1ccccc1)C(=O)N[C@@H](CCCNC(=N)N)C(=O)N1CCC[C@H]1C(N)=O [135A8]	36.3 ± 6.2	
CSCC[C@H](NC(=O)[C@@H]1CCCN1C(=O)[C@@H](NC(=O)[C@H](CO)NC(=O)[C@H](CC(=O)O)NC(=O)[C@@H]1CCCN1C(=O)[C@H](Cc1ccc(O)cc1)NC(=O)[C@H](C)NC(=O)[C@H](CO)NC(=O)[C@@H](N)Cc1ccc(O)cc1)C(C)C)C(=O)N[C@@H](CCCNC(=N)N)C(=O)N[C@@H](CO)C(N)=O [135C7]	8.8 ± 0.1	
CC(C)[C@H](NC(=O)[C@H](CO)NC(=O)[C@H](CC(=O)O)NC(=O)[C@@H]1CCCN1C(=O)[C@H](Cc1ccc(O)cc1)NC(=O)[C@H](C)NC(=O)[C@H](CO)NC(=O)[C@@H](N)Cc1ccc(O)cc1)C(=O)N1CCC[C@H]1C(=O)N[C@@H](Cc1ccccc1)C(=O)N[C@@H](CCCNC(=N)N)C(=O)N[C@@H](CO)C(N)=O [135C3]	4.4 ± 0.9	
CSCC[C@H](NC(=O)[C@H](CCSC)NC(=O)[C@@H]1CCCN1C(=O)[C@@H](NC(=O)[C@H](CO)NC(=O)[C@H](CC(=O)O)NC(=O)[C@@H]1CCCN1C(=O)[C@H](Cc1ccc(O)cc1)NC(=O)[C@H](C)NC(=O)[C@H](CO)NC(=O)[C@@H](N)Cc1ccc(O)cc1)C(C)C)C(=O)N[C@@H](CO)C(N)=O [YSA, reference compound]		stability in plasma [1]: fairly unstable in plasma with rapid hydrolysis by amino-peptidases
CSCC[C@H](NC(=O)[C@H](Cc1ccccc1)NC(=O)[C@@H]1CCCN1C(=O)[C@@H](NC(=O)[C@H](CO)NC(=O)[C@H](CC(=O)O)NC(=O)[C@@H]1CCCN1C(=O)[C@H](Cc1ccc(O)cc1)NC(=O)[C@H](C)NC(=O)[C@H](CO)NC(=O)[C@@H](N)Cc1ccc(O)cc1)C(C)C)C(=O)N1CCC[C@H]1C(N)=O [135C10]	4.6 ± 0.1	
CSCC[C@H](NC(=O)[C@@H]1CCCN1C(=O)[C@@H](NC(=O)[C@H](CO)NC(=O)[C@H](CC(=O)O)NC(=O)[C@@H]1CCCN1C(=O)[C@H](Cc1ccc(O)cc1)NC(=O)[C@H](C)NC(=O)[C@H](CO)NC(=O)[C@@H](N)Cc1ccc(O)cc1)C(C)C)C(=O)N[C@@H](CCSC)C(=O)N1CCC[C@H]1C(N)=O [135C9]	11.8 ± 0.4	
CSCC[C@H](NC(=O)[C@@H]1CCCN1C(=O)[C@@H](NC(=O)[C@H](CO)NC(=O)[C@H](CC(=O)O)NC(=O)[C@@H]1CCCN1C(=O)[C@H](Cc1ccc(O)cc1)NC(=O)[C@H](C)NC(=O)[C@H](CO)NC(=O)[C@@H](N)Cc1ccc(O)cc1)C(C)C)C(=O)N[C@@H](CCCNC(=N)N)C(=O)N1CCC[C@H]1C(N)=O [135C8]	8.4 ± 1.2	
YSAYPDSVPFR (C-terminal amide (CONH2)) [135C4]		IC50 [2]: 4.9 µM
SAYPDSVPFRP (N-terminal 4F,3ClPhOCH2CO- group (counted as position 1); Hyp at position 9; 4ClPhe at position 10; C-terminal amide) [135G3]		IC50 (read off the curve) [3]: ~0.5 µM; Kd [4]: ~0.76 µM; IC50 (read off the curve) [5]: ~0.5 µM
LAYPDAVPFRP (N-terminal 4F,3ClPhOCH2CO- group (counted as position 1); Hyp at 9; 4ClPhe at 10; C-terminal amide) [135G10]		IC50 [6]: 0.22 µM
LAYPDAVPFRP (N-terminal 4F,3ClPhOCH2CO- group (counted as position 1); 3FAbu ((2S)-2-amino-4,4,4-trifluorobutanoic acid) at 7; Hyp at 9; 4ClPhe at 10; C-terminal amide) [135H3]		IC50 [7]: 11.2 µM
